The values below are quoted from earlier work in patent publication US9023356B2, “Treatment method using EGFR antibodies and SRC inhibitors and related formulations” (Ludwig Institute for Cancer Research Ltd, priority 2007, dated 2015).

For data set [1], the system named is A431 and NR6M (express the de2-7 EGFR) xenografts. To be noted: full text: Xenografts expressing the de2-7 EGFR were resistant; NR6M express the de2-7 EGFR in the absence of the wt EGFR; cited from earlier work.
Data set [2] has as its system Renal cell carcinomas in vitro. To be noted: full text: Only cells containing the VHL gene were sensitive; no in vivo data; cited from earlier work.
A further data set concerns A431 xenografts. Particulars: full text: Recurrent xenografts following complete regression were often resistant to further therapy; over-expression of VEGF common in resistant cell lines; cited from earlier work.
For data set [3], the system named is A431 and multiple NSCLC in vitro. To be noted: full text: No correlation with EGFR number; no in vivo data; cited from earlier work.
In data set [4] the test system is Patients with colorectal cancer. Particulars: full text: Response correlated with increase in EGFR copy number; small sample numbers; cited from earlier work.

For `COc1cc2ncnc(Nc3ccc(F)c(Cl)c3)c2cc1OCCCN1CCOCC1` [ZD1839], the Observation result in data set [1] is given as “Xenografts expressing”.
For the compound “C225: monoclonal antibody directed to the EGFR”, the Observation result in data set [2] is recorded as “Only cells containing”; in the data set with A431 xenografts, “Recurrent xenografts”; in data set [3], “No correlation with”; in data set [4], “Response correlated”.
